The numbers were not newly measured in article PMC10572662, “Exploring the Influence of Spacers in EDTA–β-Cyclodextrin Dendrimers: Physicochemical Properties and In Vitro Biological Behavior” (International Journal of Molecular Sciences, 2023), which cites them from elsewhere.

Structures are written as SMILES. In brackets after ≈: the same amount, converted by molar mass.

Details of this data set: method as in PMID 17601630. The note with it: native βCD and commercial βCD derivatives.

Turning to `OC[C@H]1O[C@@H]2O[C@H]3[C@H](O)[C@@H](O)[C@@H](O[C@H]4[C@H](O)[C@@H](O)[C@@H](O[C@H]5[C@H](O)[C@@H](O)[C@@H](O[C@H]6[C@H](O)[C@@H](O)[C@@H](O[C@H]7[C@H](O)[C@@H](O)[C@@H](O[C@H]8[C@H](O)[C@@H](O)[C@@H](O[C@H]1[C@H](O)[C@H]2O)O[C@@H]8CO)O[C@@H]7CO)O[C@@H]6CO)O[C@@H]5CO)O[C@@H]4CO)O[C@@H]3CO` [native βCD, β-cyclodextrin], the water solubility was 18.5 mg/mL (≈ 16.3 mM).
